In paper PMC9176691, “Design, synthesis and biological evaluation of novel diosgenin–benzoic acid mustard hybrids with potential anti-proliferative activities in human hepatoma HepG2 cells” (Journal of Enzyme Inhibition and Medicinal Chemistry, 2022):

How the values were obtained:
Format in all cases: cell-based, human
[1] = test system: MCF-7 cells; assay: MTT anti-proliferative assay, MCF-7; conditions: read-out: IC50 MCF-7, 48 h treatment, average ± SD of three independent experiments
[2] = test system: HepG2 cells; assay: MTT anti-proliferative assay, HepG2; conditions: read-out: IC50 HepG2, 48 h treatment, average ± SD of three independent experiments
[3] = test system: HeLa cells; assay: MTT anti-proliferative assay, HeLa; conditions: read-out: IC50 HeLa, 48 h treatment, average ± SD of three independent experiments

Compound: O=C(O)c1ccc(N(CCCl)CCCl)cc1
- IC50 [1]: 25.6 µM
- IC50 [2]: > 50 µM
- IC50 [3]: > 100 µM
